Test system: C3H10T1/2 cell strain
Assay: Induction of alkali phosphatase activity in C3H10T1/2 cell strain
Format: cell-based, mouse
Details: 50 ng human recombinant BMP-2 added per well; three days of incubation; blank wells 0.24±0.11
Method: Undifferentiated mouse mesenchymal cell strain C3H10T1/2 (purchased from Dai-Nippon Seiyaku KK, Japan) was dispersed in Eagle's MEM medium containing 10% of fetal bovine serum in a cell concentration of 3.75×10^4 cells/mL, and thus a cell culture liquid was prepared. The cell culture liquid was distributed by 100 μL in each well of the 96-hole plates, on which the peptides of Examples 1 to 5, 200 μg each, had been solidified by air drying, and incubated at 37° C. in the presence of 5% CO2.
As a control, the cells are distributed in the same number into wells without any peptide solidified, and thereafter 50 ng of human recombinant BMP-2 (R&D Systems, Inc.) were added. Also blank wells were prepared to which neither human recombinant BMP-2 nor the solidified peptides were added.
Three days after the start of incubation, a culture supernatant was removed, and the wells were washed once with phosphate buffer (PBS: 10 mM, containing 0.15 M of common salt, pH 7.4). To each well of the 96-hole plates, 100 μL of Tris buffer (20 mM, pH 8.5) containing 1% Triton X-100 was added and allowed to stand for 30 minutes to dissolve cells. […] Increase in absorbency at 405 nm was measured to determine the alkaline phosphatase activity in the cell solution. The concentration of protein in the cell solution was also determined using a BCA assay kit (produced by Pierce).

## human recombinant BMP-2: human recombinant BMP-2 (R&D Systems, Inc.), used as a control [reference compound]
  alkaline phosphatase activity: 1.7±0.4 nmol/min·mg-protein

From patent US7132506B2, “Peptide having osteogenetic activity and osteogenetic accelerator containing the same” (Kyocera Corporation, priority 2001, dated 2006)
